# Patent US10053485B2, “Cytotoxic agents that preferentially target leukemia inhibitory factor (LIF) for the treatment of malignancies and as new contraceptive agents” (Evestra, Inc., priority 2015, dated 2018)
# System: LIF-overexpressing MCF-7 (MCF-7 LIF) human breast cancer cells
# Assay: LIF specificity assay, LIF-overexpressing cells
# Format: cell-based
# Conditions: MCF-7 vs. MCF-7 LIF cytotoxicity (specificity towards LIF)
structure (smiles),measurement,value
"C#CC(F)(F)[C@]1(O)CCC2C3CCC4=CC(=O)CCC4=C3C(c3ccc(C4CC4)cc3)C[C@@]21C (stereo partly drawn) [EC330, 17α-(1,1-difluoro-2-propyn-1-yl)-17β-hydroxy-11β-[4-p-(cyclopropyl)phenyl]estra-4,9-dien-3-one]",Fold Change,3
